Test results published in ChEMBL document CHEMBL4837269, “Identification of 6-Hydroxypyrimidin-4(1H)-one-3-carboxamides as Potent and Orally Active APJ Receptor Agonists” (ACS Med Chem Lett, 2021).

Target: T1, Apelin receptor (Homo sapiens, UniProt P35414)
T1 sequence (P35414 whole entry): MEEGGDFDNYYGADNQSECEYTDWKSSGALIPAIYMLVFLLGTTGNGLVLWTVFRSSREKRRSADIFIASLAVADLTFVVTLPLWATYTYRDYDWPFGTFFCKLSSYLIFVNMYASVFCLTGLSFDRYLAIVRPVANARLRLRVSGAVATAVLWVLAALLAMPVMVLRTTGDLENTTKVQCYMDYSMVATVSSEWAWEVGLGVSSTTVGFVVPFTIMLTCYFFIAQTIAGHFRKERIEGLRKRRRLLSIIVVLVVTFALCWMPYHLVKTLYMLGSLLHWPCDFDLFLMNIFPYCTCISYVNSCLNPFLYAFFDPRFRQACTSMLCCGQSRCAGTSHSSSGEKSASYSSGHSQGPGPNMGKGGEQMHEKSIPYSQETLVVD
Experiment: Agonist activity at human APJ receptor expressed in HEK293T cells assessed as compound stimulated inhibition of forskolin stimulated cAMP production incubated for 30 mins by HTRF assay
Assay type: functional, cell-based

EC50 [nM]	Structure (SMILES)
0.22	CCCCc1nc(=O)c(C(=O)N2CC[C@H](c3ccccc3)C2)c(O)n1-c1c(OC)cccc1OC
0.26	CCCCc1nc(=O)c(C(=O)N2CC[C@@H](c3ccccc3)C2)c(O)n1-c1c(OC)cccc1OC
0.23	COc1cccc(OC)c1-n1c(NS(=O)(=O)[C@@H](C)[C@H](C)c2ncc(C)cn2)nnc1-c1cncc(C)c1 [AZELAPRAG]
